Results taken from ChEMBL document CHEMBL1154688, “Selective Kv1.5 blockers: development of (R)-1-(methylsulfonylamino)-3-[2-(4-methoxyphenyl)ethyl]-4-(4-methoxyphenyl)-2-imidazolidinone (KVI-020/WYE-160020) as a potential treatment for atrial arrhythmia” (J Med Chem, 2009).

Organism: Homo sapiens
Assay: Protein binding in human plasma by equilibrium dialysis
Conditions: read-out: PPB (converted)

Q: `COc1ccc(CCN2C(=O)N(NS(C)(=O)=O)C[C@H]2c2ccc(OC)cc2)cc1` was tested. Which fraction unbound did it give?
A: The fraction unbound was 0.06.
